This series has as its system uninfected cells.

“Dextran Sulfate [DS5000 Dextran Sulfate]” showed a CC50 above 250 µg/mL.

The values are drawn from patent US6740635B2, “Antiviral linear polymers” (Biomolecular Research Institute Ltd., priority 1996, dated 2004).
